Test: Solubility in DMSO and common organic solvents
Assay type: physicochemical
Description: Coordination of the axial ligands to the Pt center improved the solubility of the complexes in common organic solvents. DMSO solutions of the Pt(IV) complexes with concentrations of 10 mM or higher were obtainable, whereas the Pt(II) can only be made at the highest concentration of 5 mM.

In the case of “[Pt(IV)Cl2(OAc)2(4,4′-dioctyloxy-2,2′-bipyridine)] [Pt(IV)-8C]”, the “solubility in DMSO and other common organic solvents (in words)” value is reported as “markedly improved compared to Pt(II)-8C”.

Reference: patent US10316050B2, “PT (IV) complexes containing 4,4′-disubstituted-2,2′-bipyridyl and their use in cancer therapy” (THE BOARD OF REGENTS OF THE NEVADA SYSTEM OF HIGHER …, priority 2014, dated 2019)
